Results: US12227593B2, “Site-specific conjugation of glycosylated monoclonal antibodies with transglutaminase” (Janssen Biotech, Inc., priority 2020, dated 2025)

How the values were obtained:
MTG [1] = target: T1, MTG (Streptomyces mobaraensis, UniProt P81453); test: MTG-catalyzed conjugation of 3-APA to mAbs, degree of labeling (DOL) by LC-MS; format: biochemical, S. mobarensis; settings: per full mAb
T1 construct: purchased Activa TI or Zedira
T1 sequence (P81453 77-407): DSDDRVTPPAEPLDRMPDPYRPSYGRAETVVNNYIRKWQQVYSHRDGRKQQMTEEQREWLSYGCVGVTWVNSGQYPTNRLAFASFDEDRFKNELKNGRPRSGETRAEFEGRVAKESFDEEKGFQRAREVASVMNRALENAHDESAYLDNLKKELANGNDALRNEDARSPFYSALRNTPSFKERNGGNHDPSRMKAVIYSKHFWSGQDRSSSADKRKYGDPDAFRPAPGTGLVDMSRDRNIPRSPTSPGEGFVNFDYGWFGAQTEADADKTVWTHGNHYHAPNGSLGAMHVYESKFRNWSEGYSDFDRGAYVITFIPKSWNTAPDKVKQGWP
Procedure: To assess the suitability of the mAb variants for MTG-catalyzed conjugation, intact mAbs (1 mg/mL) were reacted with 3-azido propylamine (3-APA; 20-100-fold molar excess) and MTG (Activa TI, 5-20% w/v or Zedira, 5-20 units/mg of mAb) in PBS buffer at 22-37° C. for 30 min to overnight. Reactions were stopped by the addition of MTG blocker (Zedira) to 100 μM and analyzed by LC-MS following deglycosylation with PNGase F and reduction with dithiothreitol. The degree of labeling (DOL) was determined by mass spectrometry.
LC-MS was performed on an Agilent 1260 HPLC system connected to an Agilent G6224 MS-TOF Mass Spectrometer. LC was run on an Agilent RP-mAb C4 column (2.1×50 mm, 3.5 micron) at a flow rate of 1 mL/min with the mobile phase 0.1% formic acid in water (A) and 0.1% formic acid in acetonitrile (Sigma-Aldrich Cat #34688) (B) and a gradient of 20% B (0-2 min), 20-60% B (2-3 min), 60-80% B (3-5.5 min). The instrument was operated in positive electro-spray ionization mode and scanned from m/z 600 to 6000. Mass to charge spectrum was deconvoluted using the Maximum Entropy algorithm and DOL was estimated using relative intensities of the deconvoluted masses corresponding to intact mAb (for intact mass) or mAb heavy chain (for reduced mass) with the addition of multiples of 83 Da (corresponding to 3-APA).
Instrument settings included: capillary voltage 3500V; fragmentor 175V; skimmer 65V; gas temperature 325C; drying gas flow 5.0 L/min; nebulizer pressure 30 psig; acquisition mode range 100-7000 with 0.42 scan rate.

MTG [2] = target: T1, MTG; test: MTG-catalyzed conjugation with different amine substrates, DOL by LC-MS; format: biochemical, S. mobarensis; settings: 18 hour reaction at 37° C., substrate 690 uM, Zedira MTG 10 U/mg
[3] = glycosylated mAbs, 4 hour incubation with MTG and 3-APA at 37° C., reduced MS
[4] = glycosylated mAbs, MTG and 3-APA at 37° C.

Substance: Entire CH2 domain: trastuzumab variant, engrafting the corresponding sequence of rat IgG2a
- DOL (MTG [1]; [3]): 1-1.4

Substance: WT degly: WT trastuzumab deglycosylated
- DOL, substrate NH2-MMAF (MTG [2]): 0.9
- DOL 60 min (MTG [1]; MTG and 3-APA at 37° C.): 1.64
- DOL 0 min (MTG [1]; [4]): 0

Substance: C′/D and E strands: trastuzumab variant, engrafting the corresponding sequence of rat IgG2a
- DOL (MTG [1]; [3]): 0.6-0.8

Substance: trastuzumab [WT]
- DOL, substrate 3-APA (MTG [2]): 1.2
- DOL, substrate Azido-PEG3-amine (MTG [2]): 1.2
- DOL, substrate NH2-MMAF (MTG [2]): 0.1
- DOL, substrate NH2-vcMMAF (MTG [2]): 0.5
- DOL, substrate pentyl amino biotin (MTG [2]): 1.1
- DOL (MTG [1]; MTG and 3-APA at 37° C. for 1 hour, standard conditions): 0.5
- DOL 30 min (MTG [1]; MTG and 3-APA at 37° C., 30 min): 0.1
- DOL 60 min (MTG [1]; MTG and 3-APA at 37° C.): 0.18
- DOL 1 hr (MTG [1]; MTG and 3-APA at 37° C., 1 hr): 0.5
- DOL 90 min (MTG [1]; MTG and 3-APA at 37° C., 90 min): 0.24
- DOL 150 min (MTG [1]; MTG and 3-APA at 37° C., 150 min): 0.36
- DOL 4 hr (MTG [1]; MTG and 3-APA at 37° C., 4 hr): 0.7
- DOL 18 hr (MTG [1]; different IgG backgrounds, MTG and 3-APA at 37° C., 18 hr): 1.2
- DOL (MTG [1]; [3]): 0.2
- DOL 0 min (MTG [1]; [4]): 0
